# Test results as given in ChEMBL document CHEMBL5104178, “Nitroimidazopyrazinones with Oral Activity against Tuberculosis and Chagas Disease in Mouse Models of Infection” (J Med Chem, 2022).
# Experiments:
# [1] = test system: Mycobacterium tuberculosis; experiment: Substrate activity at Mycobacterium tuberculosis Ddn expressed in Escherichia coli BL21 (DE3) assessed as oxidation of F420H2 by measuring Kcat by spectrophotometric analysis
# [2] = test system: Mycobacterium tuberculosis; experiment: Substrate activity at Mycobacterium tuberculosis Ddn expressed in Escherichia coli BL21 (DE3) assessed as oxidation of F420H2 by measuring Km by spectrophotometric analysis
# [3] = test system: Mycobacterium tuberculosis; experiment: Substrate activity at Mycobacterium tuberculosis Ddn expressed in Escherichia coli BL21 (DE3) assessed as oxidation of F420H2 by measuring Kcat/Km by spectrophotometric analysis
structure (smiles),measurement,setting,value
O=c1c2nc([N+](=O)[O-])cn2ccn1Cc1ccc(OC(F)(F)F)cc1,kcat,[1],3.3 10^-3/s
same,Km,[2],2 µM
same,kcat/Km,[3],1640 M⁻¹ s⁻¹
